Columns and labels:
aminopeptidase M = aminopeptidase M (Sus scrofa, UniProt P15145); test: Inhibition of aminopeptidase M (L-leucine-β-naphthylamide substrate); assay type: biochemical
[1] = test system: antibody-forming cells in spleen; test: Humoral antibody formation: plaque-forming cells in spleen of SRBC-immunized mice (Jerne's hemolytic plaque technique); assay type: in vivo, CDF-mice; conditions: intraperitoneal injection, probestin 1000 μg to 62.5 μg/mouse
Procedure: CDF-mice were immunized by intravenous injection of 10^8 sheep red blood cells (SRBC). 1000 μg/mouse, 250 μg/mouse or 62.5 μg/mouse of probestin was administered by intraperitoneal injection into the mice at the time of the immunization with SRBC (0 hour) and then totally three times, namely 24, 48 and 72 hours after the immunization. Four days after the immunization with SRBC, the number of the plaque-forming cell (PFC) (namely, the antibody-forming cells) in spleen was enumerated by the known Jerne's hemolytic plaque technique [Jerne, N.K; A. A. Nordin & C. Henry; "The agar plaque technique for recognizing antibody-producing cells in cell-bound antibodies" pp. 109-122 published by Wister Institute press, Philadelphia (1963)].

By UniProt entry, the sequences of proteins in these tests, tags left out.
UniProt P15145, whole entry: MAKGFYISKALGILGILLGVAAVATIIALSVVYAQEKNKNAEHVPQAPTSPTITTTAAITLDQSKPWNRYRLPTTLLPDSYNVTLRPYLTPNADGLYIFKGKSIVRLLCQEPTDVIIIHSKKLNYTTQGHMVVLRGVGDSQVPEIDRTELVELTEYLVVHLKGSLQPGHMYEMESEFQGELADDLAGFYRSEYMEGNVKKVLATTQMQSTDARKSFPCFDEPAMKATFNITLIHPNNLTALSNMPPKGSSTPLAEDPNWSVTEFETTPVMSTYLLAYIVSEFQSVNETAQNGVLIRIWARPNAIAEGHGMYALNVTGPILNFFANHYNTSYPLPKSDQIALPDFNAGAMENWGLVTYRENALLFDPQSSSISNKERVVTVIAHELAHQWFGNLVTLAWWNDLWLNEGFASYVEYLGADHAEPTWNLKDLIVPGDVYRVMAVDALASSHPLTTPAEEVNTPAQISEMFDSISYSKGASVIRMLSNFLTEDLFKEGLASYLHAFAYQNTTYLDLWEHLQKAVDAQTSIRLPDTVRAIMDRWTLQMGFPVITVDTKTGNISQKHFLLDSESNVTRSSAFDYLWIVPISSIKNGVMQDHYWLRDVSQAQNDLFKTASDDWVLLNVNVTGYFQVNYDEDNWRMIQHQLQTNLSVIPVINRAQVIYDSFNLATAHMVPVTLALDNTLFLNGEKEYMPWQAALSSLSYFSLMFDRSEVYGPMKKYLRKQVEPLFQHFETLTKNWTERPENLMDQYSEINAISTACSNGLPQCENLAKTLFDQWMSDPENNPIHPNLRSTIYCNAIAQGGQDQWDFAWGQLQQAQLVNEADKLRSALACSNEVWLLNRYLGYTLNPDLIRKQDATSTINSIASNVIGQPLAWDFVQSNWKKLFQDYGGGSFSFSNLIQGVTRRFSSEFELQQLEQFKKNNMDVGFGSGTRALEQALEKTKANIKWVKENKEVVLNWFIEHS
UniProt Q07075, whole entry: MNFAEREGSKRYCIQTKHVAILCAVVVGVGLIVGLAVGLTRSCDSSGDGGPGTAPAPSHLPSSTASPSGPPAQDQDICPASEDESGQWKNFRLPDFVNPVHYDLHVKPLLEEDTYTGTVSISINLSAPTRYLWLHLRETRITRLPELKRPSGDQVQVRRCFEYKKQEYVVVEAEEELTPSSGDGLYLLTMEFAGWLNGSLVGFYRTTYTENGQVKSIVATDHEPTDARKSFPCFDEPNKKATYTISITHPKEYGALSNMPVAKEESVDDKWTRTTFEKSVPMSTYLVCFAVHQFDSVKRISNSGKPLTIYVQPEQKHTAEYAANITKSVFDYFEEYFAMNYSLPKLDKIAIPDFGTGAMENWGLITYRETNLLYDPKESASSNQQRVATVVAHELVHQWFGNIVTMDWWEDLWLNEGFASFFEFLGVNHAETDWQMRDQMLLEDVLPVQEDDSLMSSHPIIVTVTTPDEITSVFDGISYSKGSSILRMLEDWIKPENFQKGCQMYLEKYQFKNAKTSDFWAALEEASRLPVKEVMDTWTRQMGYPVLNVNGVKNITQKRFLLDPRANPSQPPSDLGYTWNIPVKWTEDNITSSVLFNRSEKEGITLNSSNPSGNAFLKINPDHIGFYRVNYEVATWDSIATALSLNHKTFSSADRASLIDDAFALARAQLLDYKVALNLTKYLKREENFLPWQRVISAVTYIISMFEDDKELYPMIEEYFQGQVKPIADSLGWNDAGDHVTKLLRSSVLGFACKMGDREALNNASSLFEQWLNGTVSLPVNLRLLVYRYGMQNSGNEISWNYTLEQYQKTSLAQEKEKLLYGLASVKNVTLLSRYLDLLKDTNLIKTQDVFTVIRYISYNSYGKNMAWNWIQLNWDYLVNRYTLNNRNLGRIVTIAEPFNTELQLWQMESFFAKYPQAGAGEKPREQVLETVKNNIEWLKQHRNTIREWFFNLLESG
UniProt Q9H4A4, whole entry: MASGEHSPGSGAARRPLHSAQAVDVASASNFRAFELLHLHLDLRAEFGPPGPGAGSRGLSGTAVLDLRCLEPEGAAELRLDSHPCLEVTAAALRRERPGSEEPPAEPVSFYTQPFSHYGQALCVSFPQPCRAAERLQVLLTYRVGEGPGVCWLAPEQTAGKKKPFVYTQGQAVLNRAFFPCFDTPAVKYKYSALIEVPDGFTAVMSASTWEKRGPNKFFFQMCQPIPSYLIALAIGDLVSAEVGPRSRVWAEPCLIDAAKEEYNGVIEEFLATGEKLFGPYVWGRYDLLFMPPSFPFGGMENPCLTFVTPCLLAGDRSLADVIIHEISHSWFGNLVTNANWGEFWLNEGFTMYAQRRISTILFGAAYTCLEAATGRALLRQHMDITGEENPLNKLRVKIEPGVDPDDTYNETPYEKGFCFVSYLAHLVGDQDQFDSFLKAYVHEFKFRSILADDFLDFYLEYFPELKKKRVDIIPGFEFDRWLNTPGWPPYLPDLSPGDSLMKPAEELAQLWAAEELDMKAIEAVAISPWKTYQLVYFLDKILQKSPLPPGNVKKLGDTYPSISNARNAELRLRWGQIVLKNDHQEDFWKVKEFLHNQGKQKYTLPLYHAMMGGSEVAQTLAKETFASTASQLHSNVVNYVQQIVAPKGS
UniProt P28838, whole entry: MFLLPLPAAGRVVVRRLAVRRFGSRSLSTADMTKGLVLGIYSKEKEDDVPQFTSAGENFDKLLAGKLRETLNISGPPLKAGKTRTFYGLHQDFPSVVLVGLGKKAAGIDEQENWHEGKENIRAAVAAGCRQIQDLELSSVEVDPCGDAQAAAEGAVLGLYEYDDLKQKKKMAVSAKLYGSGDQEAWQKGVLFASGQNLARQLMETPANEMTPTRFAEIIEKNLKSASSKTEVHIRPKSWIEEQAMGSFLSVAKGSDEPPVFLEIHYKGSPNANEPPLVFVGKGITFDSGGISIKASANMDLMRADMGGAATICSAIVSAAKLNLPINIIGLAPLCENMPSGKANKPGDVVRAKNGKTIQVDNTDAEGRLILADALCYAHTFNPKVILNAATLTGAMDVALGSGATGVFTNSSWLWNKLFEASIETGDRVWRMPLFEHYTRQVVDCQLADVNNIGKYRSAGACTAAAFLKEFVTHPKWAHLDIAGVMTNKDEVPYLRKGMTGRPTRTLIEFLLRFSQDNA

mice = test: Acute toxicity by intravenous injection in mice
Solubility in solvents = assay type: physicochemical; conditions: water and organic solvents
Aminopeptidase-A = Aminopeptidase-A (Homo sapiens, UniProt Q07075); test: Inhibition of aminopeptidase-A
Aminopeptidase-B = Aminopeptidase-B (Homo sapiens, UniProt Q9H4A4); test: Inhibition of aminopeptidase-B
Leucine-aminopeptidase = Leucine-aminopeptidase (Homo sapiens, UniProt P28838); test: Inhibition of leucine-aminopeptidase

CCC(C)CCC(N)C(O)C(=O)NC(CC(C)C)C(=O)N1CCCC1C(=O)N1CCCC1C(=O)O (stereo not shown)
Value of IC50 against Aminopeptidase M (aminopeptidase M): 0.028 µg/mL | Effect on number of antibody-forming cells in spleen (in words) [1]: increased the number of the antibody-forming cells in spleen of the mice substantially as much as probestin | LD50 (mice): greater than 250 mg/kg | Solubility (Solubility in solvents): Readily soluble in water, methanol and dimethyl-sulfoxide, soluble in acetone and chloroform, but insoluble in ethyl acetate and hexane | Value of IC50 against Aminopeptidase-A (Aminopeptidase-A): 91.1 µg/mL | Value of IC50 against Aminopeptidase-B (Aminopeptidase-B): 60.0 µg/mL | Value of IC50 against Leucine-aminopeptidase (Leucine-aminopeptidase): 0.3 µg/mL

— patent US5021549A, “Physiologically active substances, probestin and prostatin and production thereof” (priority 1987, dated 1991)
